scFv variants of Ab-14 (heavy chain) against a SARS-CoV-2 spike peptide

Data: MIT Lincoln Laboratory AlphaSeq set, Engelhart et al. 2022, doi:10.1038/s41597-022-01779-4, as distributed in FLAb.

Antigen: PDVDLGDISGINAS, a 14-residue peptide of the SARS-CoV-2 spike HR2 region.

The variants keep the light chain, the linker and the frameworks of Ab-14 (scFv order VH, a (GGGGS)3 linker, VL).
VH: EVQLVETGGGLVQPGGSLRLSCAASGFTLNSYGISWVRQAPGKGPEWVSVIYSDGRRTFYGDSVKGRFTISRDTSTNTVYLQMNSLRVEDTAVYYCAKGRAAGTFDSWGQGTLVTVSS
VL: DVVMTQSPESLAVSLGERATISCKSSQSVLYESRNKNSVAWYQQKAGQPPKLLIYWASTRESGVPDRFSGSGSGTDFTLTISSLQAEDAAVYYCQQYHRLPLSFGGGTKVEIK

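The starting antibody came from a phage panning campaign against this peptide. Library AAYL49 holds single substitutions and randomly drawn double and triple substitutions in the CDRs. The assay is AlphaSeq: two haploid yeast populations carry antibody and antigen on their surface. The frequency of each diploid, read from paired DNA barcodes, reflects how well the two displayed proteins bind. The ratio of observed to expected reads was calibrated, replicate by replicate, on BCL2-family standards whose Kd was known from biolayer interferometry. There are three technical replicates.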

Variants are written as CDR1, CDR2 and CDR3 of the heavy chain (limits as in the source). Parent: GFTLNSYGIS, VIYSDGRRTFYGDSVK, GRAAGTFDS. The read-out is the apparent dissociation constant on a log10 scale (nM): the lower, the stronger. A pair that was not seen in that replicate is written "nd"; this usually means weak binding, but a binder can also be missed. Background: pairings of library AAYL49 with three empty control strains gave a value in 15% of cases (median 4.06, 5th percentile 2.83). Values in that range, when seen in few replicates, are hard to tell from nonspecific mating. For each scFv, signals with the empty controls are counted beside the result, with their mean in brackets.

| CDR-H1 | CDR-H2 | CDR-H3 | log10 Kd, replicates | control signals |
|---|---|---|---|---|
| GVTLNSYGPS | VIISDGRRTFYGDSVK | GRAAGTFDS | nd / 5.01 / 3.90 | 3 of 9 (4.16) |
| GFTLNSYGIS | VIYSDGRHTFYGDSVK | GRIAGTFDS | 1.50 / 1.74 / 1.68 | 1 of 9 (4.18) |
| GFTLNSYNIS | VIYSDGRRTFYGDSVK | GRAIGTFDS | nd / 4.30 / nd | 4 of 9 (4.22) |
| GFTLNSYGIS | VIYSIGRRLFYGKSVK | GRAAGTFDS | nd / nd / nd | 0 of 9 |
| GFTLNSYGIS | WIYSDGYRTFYGDSVK | GGAAGTFDS | nd / nd / nd | 0 of 9 |
| SFTNNSYGIS | VIYSDGRPTFYGDSVK | GRAAGTFDS | nd / nd / nd | 1 of 9 (3.35) |
| GFTLNSYGMS | VIYSDGRRTEYGDSVK | GRAAGFFDS | 3.10 / 2.84 / 4.49 | 6 of 9 (4.63) |
| GNTLNSYGIS | VIYSDGRRTFYGDSSK | GRAAWTFDS | nd / nd / nd | 0 of 9 |
| GFTLNSYTIS | VIYSDGRRTFYGDSVK | DRAAGTRDS | nd / nd / 4.38 | 1 of 9 (3.68) |
| GFTLNSVGIS | VIYSDPRRDFYGDSVK | GRAAGTFDS | nd / nd / nd | 3 of 9 (4.67) |
| GFTLNSYGIS | VIYSDGARTFYGDSVW | GRAGGTFDS | nd / nd / nd | 0 of 9 |
| GFTLNSYGIP | VIRSDGRRTFYGDSVK | GRCAGTFDS | nd / nd / nd | 3 of 9 (3.61) |
| PFTLNSYGIS | VIYSDPRRTFYGDFVK | GRAAGTFDS | nd / nd / 5.89 | 0 of 9 |
| GFTLNSYGIS | VIYSAGRRWFYGWSVK | GRAAGTFDS | nd / nd / nd | 0 of 9 |
| GFTLNSYGIS | VIYSDKRETFYWDSVK | GRAAGTFDS | nd / 4.55 / 6.40 | 3 of 9 (4.13) |
| GFTLNSYGIP | VIYSDGRRTRYGDSVW | GRAAGTFDS | nd / nd / nd | 0 of 9 |
| GFTLNSRGIS | VIYSWGRRTFYGDSVQ | GRAAGTFDS | nd / nd / nd | 1 of 9 (3.71) |
| GFDLNSYGIS | VIYSDGNRTFYGDSVK | GRPAGTFDS | 1.07 / 1.15 / 1.11 | 8 of 9 (4.78) |
| GFTLNSYGIS | VIYCDGRRTFYGDSDK | GIAAGTFDS | nd / nd / nd | 0 of 9 |
| GFTFNSYGIS | VIYSDGRRTFYGDSVK | GRAAGTFTS | 3.51 / nd / nd | 1 of 9 (3.30) |
| GFTLNSYGIS | VNYSDGRRTFYGDSCK | GRAAGMFDS | 4.05 / nd / nd | 3 of 9 (4.22) |
| GFTLNSYGIS | VIYSDGRRTFFGDSVK | GRAAGTPDS | nd / 3.19 / nd | 0 of 9 |
| GFTLNSYGIW | VIASDGRRTFYGDSLK | GRAAGTFDS | 4.65 / nd / nd | 0 of 9 |
| GFTPNSYGIS | VIYSDGRRTFYGDSVK | GRAACTFDS | 4.66 / 3.86 / nd | 2 of 9 (3.60) |
| RFTLNSYGIS | VIYSPGRRTFYGDSVK | GRAAGTFDK | nd / nd / nd | 1 of 9 (1.81) |
| WFTLNSYGIS | VAYHDGRRTFYGDSVK | GRAAGTFDS | 4.81 / nd / nd | 1 of 9 (3.22) |
| GFTLNSYGIS | VYYHDGRRTFYGESVK | GRAAGTFDS | nd / nd / nd | 0 of 9 |
| KFTFNSYGIS | VIYSDGRLTFYGDSVK | GRAAGTFDS | nd / 4.64 / nd | 0 of 9 |
| VFTLNSYGIS | NIYSDGRRTFYPDSVK | GRAAGTFDS | 4.22 / 4.81 / 4.39 | 3 of 9 (4.70) |
| GFTLNSYGAI | VIYSDHRRTFYGDSVK | GRAAGTFDS | nd / nd / nd | 1 of 9 (3.16) |
| GFTHNSYGIS | VIYSDGRRTFYGDSVK | GRNAGTFDS | 4.01 / 5.35 / 4.48 | 1 of 9 (3.49) |
| GFTLNSVGIS | VIYSDGRRTFYFDSMK | GRAAGTFDS | 1.81 / nd / nd | 0 of 9 |
| GFWLNSDGIS | VIYSDGRRTFYGDSVK | GDAAGTFDS | nd / 3.43 / 4.50 | 8 of 9 (4.68) |
| GFTLNSYGIS | DIYSDGRRTFYGDSVP | GRVAGTFDS | nd / 3.67 / nd | 2 of 9 (3.05) |
| GFELNSYGIS | MIYSDCRRTFYGDSVK | GRAAGTFDS | nd / nd / nd | 0 of 9 |
| GFTLNSYGIS | VIYSDGQRQFYGDSVK | GRAAGTKDS | nd / nd / nd | 2 of 9 (3.79) |
| GFTLNSYGCS | EIYSDGRRTFYGDSVK | GRAAGTFAS | nd / nd / nd | 2 of 9 (4.11) |
| PFTLNSYGIS | VIYSDGRCTFYGDSVK | GRAAGTFDS | nd / nd / nd | 0 of 9 |
| GFTLNSYGIS | VIYSDGRITYYGDSVK | GRAAGTFQS | nd / nd / nd | 0 of 9 |
| GFTLNSHGIS | VIYTDGRRTFYGDSVK | YRAAGTFDS | nd / nd / nd | 0 of 9 |
| GFTLNSYGIS | VIWSDGWRTFYGDSVK | GRAAGTFDY | nd / 4.35 / nd | 3 of 9 (4.98) |
| GFTGNFYGGS | VIYSDGRRTFYGDSVK | GRAAGTFDS | 4.03 / 5.04 / 5.42 | 7 of 9 (4.08) |
| GFTLNCYGIS | VIYSDGRRTLYGDSVK | GSAAGTFDS | nd / 3.60 / nd | 2 of 9 (4.28) |
| GFLLNSYGIS | VIYSDGRRTFYSDSVK | GTAAGTFDS | 1.02 / 1.03 / 1.40 | 2 of 9 (4.18) |
| GFTLNGYFIS | VIYSDGERTFYGDSVK | GRAAGTFDS | 6.03 / 3.36 / nd | 1 of 9 (3.89) |
| GFMLNSFGIS | VIYSDGRGTFYGDSVK | GRAAGTFDS | nd / nd / nd | 2 of 9 (4.74) |
| GFTQNSYGIS | VIYSDGRRTFYGDSVK | ERAADTFDS | nd / nd / nd | 1 of 9 (4.84) |
| GFTLNSIGIS | VIYSSGRWTFYGDSVK | GRAAGTFDS | nd / nd / nd | 3 of 9 (2.95) |
| GFTLNSYGIS | VFYSDGRRTFYGDSVK | GRACGTFDS | nd / nd / nd | 1 of 9 (5.44) |

Excerpt, the final 5 entries:

{"CDR-H1": "GFTLNGYFIS", "CDR-H2": "VIYSDGERTFYGDSVK", "CDR-H3": "GRAAGTFDS", "log10 Kd, replicates": "6.03 / 3.36 / nd", "control signals": "1 of 9 (3.89)"}
{"CDR-H1": "GFMLNSFGIS", "CDR-H2": "VIYSDGRGTFYGDSVK", "CDR-H3": "GRAAGTFDS", "log10 Kd, replicates": "nd / nd / nd", "control signals": "2 of 9 (4.74)"}
{"CDR-H1": "GFTQNSYGIS", "CDR-H2": "VIYSDGRRTFYGDSVK", "CDR-H3": "ERAADTFDS", "log10 Kd, replicates": "nd / nd / nd", "control signals": "1 of 9 (4.84)"}
{"CDR-H1": "GFTLNSIGIS", "CDR-H2": "VIYSSGRWTFYGDSVK", "CDR-H3": "GRAAGTFDS", "log10 Kd, replicates": "nd / nd / nd", "control signals": "3 of 9 (2.95)"}
{"CDR-H1": "GFTLNSYGIS", "CDR-H2": "VFYSDGRRTFYGDSVK", "CDR-H3": "GRACGTFDS", "log10 Kd, replicates": "nd / nd / nd", "control signals": "1 of 9 (5.44)"}